Measured values from patent US20170224836A1 (Novartis, published 2017).

Biological target: T1, cynoCDH6 FL (cynomolgus, UniProt P55285 54-615 (human entry))
T1 sequence: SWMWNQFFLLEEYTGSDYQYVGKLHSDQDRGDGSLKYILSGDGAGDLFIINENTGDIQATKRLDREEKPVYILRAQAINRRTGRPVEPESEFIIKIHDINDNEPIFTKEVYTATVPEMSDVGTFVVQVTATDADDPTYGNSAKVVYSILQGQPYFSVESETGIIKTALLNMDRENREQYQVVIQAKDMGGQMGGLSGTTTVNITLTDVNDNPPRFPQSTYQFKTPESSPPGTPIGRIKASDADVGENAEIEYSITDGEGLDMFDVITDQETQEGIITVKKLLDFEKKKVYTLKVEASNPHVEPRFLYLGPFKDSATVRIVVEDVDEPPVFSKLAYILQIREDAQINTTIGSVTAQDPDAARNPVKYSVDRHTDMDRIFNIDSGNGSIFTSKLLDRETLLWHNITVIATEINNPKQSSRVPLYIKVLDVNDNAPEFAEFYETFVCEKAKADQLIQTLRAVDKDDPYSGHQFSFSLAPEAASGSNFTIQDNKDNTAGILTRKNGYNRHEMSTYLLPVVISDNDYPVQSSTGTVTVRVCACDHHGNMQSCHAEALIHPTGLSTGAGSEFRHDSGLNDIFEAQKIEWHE
Experiment: SPR

Kd: 3.84 nM
B1: NOV0710 (antibody, human IgG1, kappa, V domains shown)
VH: QVQLLESGGGLVQPGGSLRLSCAASGFTFSSYAMSWVRQAPGKGLEWVSVIRSSGSSTYYADSVKGRFTISRDNSKNTLYLQMNSLRAEDTAVYYCARGGGYFDYWGQGTLVTVSS
VL: DIQMTQSPSSLSASVGDRVTITCRASQSISLWLNWYQQKPGKAPKLLIYAASTLQSGVPSRFSGSGSGTDFTLTISSLQPEDFATYYCQQYYTSPYTFGQGTKVEIKR
